# Measured affinities in a library of Ab-14 light chain variants

The target is the same throughout: PDVDLGDISGINAS, from the HR2 region of SARS-CoV-2 spike.

Parent: Ab-14, a human scFv built as VH, the linker GGGGSGGGGSGGGGS, VL. Only the CDRs of the light chain vary.
VH: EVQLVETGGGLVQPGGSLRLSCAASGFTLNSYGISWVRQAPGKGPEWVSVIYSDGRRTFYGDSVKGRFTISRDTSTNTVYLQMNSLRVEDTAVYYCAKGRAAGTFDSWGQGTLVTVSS
VL: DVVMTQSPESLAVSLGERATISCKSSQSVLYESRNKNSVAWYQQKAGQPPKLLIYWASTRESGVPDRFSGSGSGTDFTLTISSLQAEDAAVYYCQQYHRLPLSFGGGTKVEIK

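Phage display of a naive human antibody library on the peptide gave the parent. This is the validation round: designs drawn from the data on random variants, tested in the same kind of assay. Their group label is 14L_GP_HC (GP: Gaussian process model; HC: hill climbing; a sequence that several methods proposed may carry one label only). The assay is AlphaSeq: two haploid yeast populations carry antibody and antigen on their surface. Mating (16 h, 30 °C) was followed by selection of diploids and sequencing of their barcodes. Each replicate has its own calibration line, from reference interactions of the BCL2 family. The assay was run in six technical replicates.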

Variants are written as CDR1, CDR2 and CDR3 of the light chain (limits as in the source). Parent: KSSQSVLYESRNKNSVA, WASTRES, QQYHRLPLS. Scale: log10 of Kd in nM, estimated from mating counts; low values are strong binders.

{"CDR-L1": "IISQSVLYESRNKNSVA", "CDR-L2": "NASTRES", "CDR-L3": "QQYHRLPLS", "log10 Kd (nM) by replicate": "0.09 0.11 -0.04 -0.07 -0.02 0.20", "empty controls": "2/18 (2.65)"}
{"CDR-L1": "KFSQSVLYESRTTNSVA", "CDR-L2": "NASTRES", "CDR-L3": "QQYHRLPLS", "log10 Kd (nM) by replicate": "0.20 -0.20 -0.15 -0.18 -0.30 -0.04", "empty controls": "1/18 (3.15)"}
{"CDR-L1": "KVSQSWLMESRNKNSVA", "CDR-L2": "EASTRLS", "CDR-L3": "QQYHRLPLS", "log10 Kd (nM) by replicate": "-0.17 -0.28 -0.33 -0.48 -0.37 -0.19", "empty controls": "1/18 (3.06)"}
{"CDR-L1": "SLDQSVLYESRNKNSVA", "CDR-L2": "HASLRED", "CDR-L3": "QQYHRLPLS", "log10 Kd (nM) by replicate": "0.08 0.16 -0.04 0.08 0.28 0.28", "empty controls": "0/18"}
{"CDR-L1": "KFYPSYLYESRNKNSVA", "CDR-L2": "QASTRES", "CDR-L3": "QQYHRLPLS", "log10 Kd (nM) by replicate": "0.05 -0.10 -0.19 -0.30 -0.17 0.11", "empty controls": "1/18 (3.49)"}
{"CDR-L1": "KSGGQVLYESRNKNSVA", "CDR-L2": "GASTRES", "CDR-L3": "QQYHRLPLS", "log10 Kd (nM) by replicate": "0.84 0.41 0.19 0.15 0.30 0.35", "empty controls": "0/18"}
{"CDR-L1": "KSSQSVKDESRNKNSVA", "CDR-L2": "DASTRES", "CDR-L3": "QQYHRLPLS", "log10 Kd (nM) by replicate": "-0.03 -0.12 -0.12 -0.32 -0.23 0.22", "empty controls": "1/18 (2.24)"}
{"CDR-L1": "KSGQGVLYESRNWNSVA", "CDR-L2": "GASTRES", "CDR-L3": "QQYHRLPLS", "log10 Kd (nM) by replicate": "-0.16 -0.16 -0.18 -0.13 -0.11 0.04", "empty controls": "2/18 (2.76)"}
{"CDR-L1": "KSLQSVEYESRDKNSVA", "CDR-L2": "HASTRED", "CDR-L3": "QQYHRLPLS", "log10 Kd (nM) by replicate": "0.79 0.73 0.81 0.40 0.65 0.84", "empty controls": "5/18 (3.04)"}
{"CDR-L1": "KLLQSVLYESRNKNSVA", "CDR-L2": "HASTRED", "CDR-L3": "QQYGRLPLS", "log10 Kd (nM) by replicate": "0.27 0.25 0.18 0.23 0.28 0.52", "empty controls": "0/18"}
{"CDR-L1": "KLPNSTLYESRQKNSVA", "CDR-L2": "DASTRES", "CDR-L3": "QQYHRLPLS", "log10 Kd (nM) by replicate": "-0.07 -0.25 -0.77 -0.09 -0.12 -0.24", "empty controls": "0/18"}
{"CDR-L1": "KSSGSYLYESRNKNSVA", "CDR-L2": "EASTREQ", "CDR-L3": "QQYHRLPLS", "log10 Kd (nM) by replicate": "-0.01 0.08 -0.35 -0.32 -0.10 0.01", "empty controls": "1/18 (1.86)"}
{"CDR-L1": "KISISYLGESRNKNSVA", "CDR-L2": "EASTRES", "CDR-L3": "QQYHRLPLS", "log10 Kd (nM) by replicate": "0.46 0.21 0.00 0.21 0.04 0.23", "empty controls": "0/18"}
{"CDR-L1": "KQSQSVLYESRNKNNVA", "CDR-L2": "MASTRES", "CDR-L3": "QQYHRLPLS", "log10 Kd (nM) by replicate": "0.44 0.19 0.24 0.20 0.38 0.37", "empty controls": "1/18 (2.45)"}
{"CDR-L1": "KLRQSTLYESRNQNSVA", "CDR-L2": "SASTRES", "CDR-L3": "QQYHRLPLS", "log10 Kd (nM) by replicate": "-0.36 -0.37 -0.37 -0.49 -0.47 -0.28", "empty controls": "1/18 (2.47)"}
{"CDR-L1": "KALFSVLYESRDKNSVA", "CDR-L2": "HASTRED", "CDR-L3": "QQYHRLPLS", "log10 Kd (nM) by replicate": "0.65 0.34 0.76 0.43 0.33 1.03", "empty controls": "0/18"}
{"CDR-L1": "KSGQGVLYESRQKNSVA", "CDR-L2": "GASTRES", "CDR-L3": "QQYHRLPLS", "log10 Kd (nM) by replicate": "0.01 0.25 -0.17 -0.01 0.03 0.22", "empty controls": "0/18"}
{"CDR-L1": "KFSQSVLYESRASNSVA", "CDR-L2": "NASTRES", "CDR-L3": "QQYHRLPLS", "log10 Kd (nM) by replicate": "0.33 0.48 0.14 -0.02 0.03 0.32", "empty controls": "1/18 (4.78)"}
{"CDR-L1": "KSQQSQLYESRNFNSVA", "CDR-L2": "NASTRES", "CDR-L3": "QQYHRLPLS", "log10 Kd (nM) by replicate": "1.21 1.48 0.89 1.41 1.44 1.79", "empty controls": "0/18"}
{"CDR-L1": "KFSQWVLYESRTKNSVA", "CDR-L2": "NASTREA", "CDR-L3": "QQYHRLPLS", "log10 Kd (nM) by replicate": "0.36 0.80 0.46 0.11 0.36 0.31", "empty controls": "1/18 (2.26)"}
{"CDR-L1": "KSSFSWLYESRNKNSVA", "CDR-L2": "GASIRES", "CDR-L3": "QQYHRLPLS", "log10 Kd (nM) by replicate": "0.00 -0.26 -0.10 -0.24 -0.06 -0.02", "empty controls": "1/18 (3.81)"}
{"CDR-L1": "KISQSVLYESRNKNSVA", "CDR-L2": "MASTRES", "CDR-L3": "QQYHRLPLS", "log10 Kd (nM) by replicate": "0.29 0.10 -0.23 -0.32 0.13 0.25", "empty controls": "0/18"}
{"CDR-L1": "KLRMSTLYESRNKNSVA", "CDR-L2": "MASTRES", "CDR-L3": "QQYHRLPLS", "log10 Kd (nM) by replicate": "0.31 0.56 0.23 0.31 1.01 0.50", "empty controls": "0/18"}
{"CDR-L1": "KLVQSTLYESRNKNSVA", "CDR-L2": "DASTRES", "CDR-L3": "QQYHRLPLS", "log10 Kd (nM) by replicate": "-0.13 -0.58 -0.36 -0.45 -0.40 -0.13", "empty controls": "2/18 (1.78)"}

The authors averaged sequences with at least three values out of six and counted those with two or fewer as poor binders. Values of this round are not directly comparable with the first-round values of the same sequences. Nonspecific signal, from three strains lacking the peptide, appeared in 4% of pairings of all light chain designs, centred on 2.64 (5% of these signals below 1.59); values are not corrected for it. The control count says in how many pairings with the empty strains this scFv gave a signal, with their mean in brackets. Of ten entries with the parent sequence, four were seen in most replicates (averages 0.34 to 2.37), three in one and three in none, so single entries are noisy.

Data: MIT Lincoln Laboratory AlphaSeq set, Li et al. 2023, doi:10.1038/s41467-023-39022-2, as distributed in FLAb.